Experimental data as given in patent US20240150333A1, “TAF1 INHIBITORS” (H. LEE MOFFITT CANCER CENTER AND RESEARCH INSTITUTE, INC., priority 2020, published 2024).

System: A549 lung cancer cells
Test: p53 pathway markers by western blot in A549 cells
Type: cell-based, human

With `C[C@@H]1COCCN1c1cc(-c2ccnn2C)c2ccnc(-c3ccn[nH]3)c2n1` [BAY1895344] the “induction of the p53 targets p21 and MDM2” value was “no induction” and the p53 levels was “minor increase”.
